The values below are quoted from earlier work in US20230218571A1 (Thiogenesis Therapeutics, Inc., priority 2020, published 2023).

The conditions of this series: human, in vivo; cited from earlier work.

For `CC(C)(CO)[C@@H](O)C(=O)NCCC(=O)NCCSSCCNC(=O)CCNC(=O)[C@H](O)C(C)(C)CO` [pantethine], the “fate of oral dose” value is on record as “much of the pantethine was excreted unchanged in the stool”.
